Test results taken from ChEMBL document CHEMBL1140135 (J Med Chem, 2008).

Target: T1, Dihydrofolate reductase (Homo sapiens, UniProt P00374)
T1 sequence (P00374 whole entry): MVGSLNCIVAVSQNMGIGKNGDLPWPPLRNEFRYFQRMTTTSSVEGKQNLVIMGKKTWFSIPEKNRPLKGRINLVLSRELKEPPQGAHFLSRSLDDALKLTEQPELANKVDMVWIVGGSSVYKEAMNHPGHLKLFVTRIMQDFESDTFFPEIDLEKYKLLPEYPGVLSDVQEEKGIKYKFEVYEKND

Cc1sc2nc(N)[nH]c(=O)c2c1Sc1ccc(Cl)c(Cl)c1
IC50: 2800 nM
